Publication PMC5723147, “Effective Antimicrobial Activity of Plectasin-Derived Antimicrobial Peptides against Staphylococcus aureus Infection in Mammary Glands” (Frontiers in Microbiology, 2017)
In brackets after ≈: the same amount, converted by molar mass.

What was measured:
[1] = system: internalized S. aureus E48 in MAC-T cells; test: Intracellular activity in cultured mammary epithelial cells; assay type: cell-based, Staphylococcus aureus; details: 100 μg/mL, 24 h exposure, change in Log10 CFU/well versus initial
Protocol: (§1) An established bovine mammary epithelial cell line, designated MAC-T, which has been used for S. aureus internalization assays ([Hensen et al., 2000]; [Bouchard et al., 2013]), was used for this experiment. The MAC-T cell was cultured in cell culture dishes in the Dulbecco’s modified eagle medium (DMEM) containing 100 U/mL penicillin, 100 μg/mL streptomycin, and 10% heat-inactivated fetal calf serum. MAC-T cells were incubated in a humidified incubator at 37°C with 5% CO2. After the cells were cultured to a confluent monolayer, the trypsin + EDTA solution (0.1%/0.04%) was added. The MAC-T cells were suspended in fresh medium at a concentration of 2 × 10^5 cells/mL and cells were then seeded in 24-well plates (1 × 10^5 cells/well) and incubated overnight at 37°C in 5% CO2 to obtain a confluent monolayer for the internalization assay.
The intracellular activities of AMPs were performed as previously described ([Peyrusson et al., 2015]) with minor modifications. Bacteria (1 × 10^7 CFU) were added to mammary epithelial cell cultures at a bacterium-to-epithelial cell ratio of 100:1. After 1 h, extracellular bacteria were removed by thorough washing and gentamicin. Washing was performed by rinsing a well with PBS 10 times. […] The number of intracellular bacteria was determined. […]

[2] = system: Staphylococcus aureus E48; assay type: cell-based; details: Mueller-Hinton broth, 5 × 10^5 CFU/mL, 37°C, 16-20 h, three replicates
Protocol: Staphylococcus aureus E48, a clinical mastitis isolate, had been used to induce mouse mastitis model ([Wang et al., 2017]). […] It was used as a positive control in this study and was purchased from Sigma–Aldrich. The AMPs were prepared according to a previously described protocol ([Zhang et al., 2015]). The minimum inhibitory concentrations (MICs) were used to evaluate the antibacterial activities of antimicrobial agents ([Wiegand et al., 2008]). Briefly, S. aureus were grown to the log-phase at 37°C in the Mueller–Hinton broth, and diluted to 5 × 10^5 CFU/mL with the fresh medium. A total of 180 μL of cell suspension and 20 μL of serially twofold diluted peptide were added to each well, and the plates were incubated at 37°C for 16–20 h. The final concentration of antimicrobial agents was prepared with gradients of 64, 32, 16, 8, 4, 2, 1, 0.5, 0.25, 0.125, and 0.0625 μg/mL. Three replicates were examined for each concentration. The MICs refer to the lowest concentration where no growth was visible after 16–20 h of incubation.

[3] = system: S. aureus E48 in mammary glands; test: Mouse model of S. aureus-induced mastitis; assay type: in vivo, BALB/c mice; details: 100 μg intramammary 45 min after ~10^4 CFU inoculation, 24 h after inoculation
Protocol: The animal protocols used in this work were approved by Institutional Animal Care and Use Committee of Northwest A&F University. The 6- to 8-week-old specific-pathogen-free BALB/c mice were purchased from the Experimental Animal Center of the Medical College of Xi’an Jiao Tong University. […] The lactating mice were challenged with S. aureus E48 as described earlier ([Schmelcher et al., 2015]). The pentobarbital sodium (1.4 mg/20 g bodyweight) was used for anesthesia of the lactating mice by intraperitoneal injection. The distal end of the teat L4 (on the left) and R4 (on the right) was removed (snipped) by a small cut. These L4 and R4 glands constitute the fourth pair found from head to tail. For all groups except for the snipped only group, glands were injected with approximately 10^4 CFU S. aureus in 50 μL PBS. At 45 min after S. aureus inoculation, the challenged glands were injected with 100 μg AMPs in 20 μL or 20 μL of PBS, depending on the treatment. The mice were euthanized 24 h after the S. aureus inoculation, and mammary glands were aseptically collected and weighed. Five mice (10 mammary glands) were used for each group. Seven mammary glands from each treatment were sampled and homogenized in PBS (100 mg/200 μL). Serial dilution plating on Baird-Parker agar plates was done to determine intramammary S. aureus. […]

[4] = system: intracellular S. aureus in the human THP-1 monocytes; details: ref Brinch et al., 2010; cited from earlier work
From the text: (§2) Antimicrobial peptides (AMPs) are a new class of antimicrobial agents with a new mode of action and appear as one of the most promising antimicrobial medicines ([Hancock and Sahl, 2006]). Plectasin with 40 amino acids is a cationic AMP isolated from the saprophytic ascomycete Pseudoplectania nigrella and has a potent activity against gram-positive bacteria ([Mygind et al., 2005]). Most AMPs have been thought to target the bacterial cell membrane.

Staphylococci = details: susceptibility testing; ref Zhang et al., 2014; cited from earlier work
From the text: as §2

S. aureus E48 [5] = test: Bactericidal activity in bovine UHT whole milk; assay type: cell-based, Staphylococcus aureus; details: 100 μg/mL, 37°C
Protocol: The activities of antimicrobial agents on S. aureus in bovine milk were determined in commercial whole-fat ultra-high-temperature-sterilized (UHT) milk as described by [Schmelcher et al. (2012)]. UHT milk (Inner Mongolia Yili Industrial Group Co., Ltd.) at 37°C was inoculated with 5 × 10^5 CFU/mL of exponentially growing cultures of S. aureus E48 in the presence of antimicrobial agents (100 μg/mL) or PBS buffer (negative control). The mixture was incubated without shaking. Samples were taken at 0, 2, 3, and 4 h after inoculation, and serially diluted in sterile PBS, plated onto TSA plates to count colonies after incubated at 37°C for 24 h. The absence of S. aureus E48 in non-inoculated UHT milk was verified by direct plating. Three independent assays were carried out on separate days.

[6] = system: MAC-T bovine mammary epithelial cells; test: Mammary epithelial cell viability (CCK-8); assay type: cell-based; details: 100 μg/mL, CCK-8, versus negative control, data not shown
Protocol: as §1, with “The” for “An established bovine mammary epithelial cell line, designated MAC-T, which has been used for S. aureus internalization assays ([Hensen et al., 2000]; [Bouchard et al., 2013]), was used for this experiment. The”

S. aureus E48 [7] = test: Time-kill kinetics in TSB culture medium; assay type: cell-based, Staphylococcus aureus; details: 37°C, 24 h
Protocol: S. aureus E48 at the concentration of 5 × 10^5 CFU/mL in fresh TSB medium was added to a flask, together with antimicrobial agents at concentrations of 0.5, 1, or 5 × MIC. The mixture was cultured at 37°C with shaking for 24 h. At 0, 2, 4, 8, 12, and 24 h of incubation, 100 μL sample was taken from each flask, serially diluted in sterile phosphate-buffered saline (PBS), plated onto tryptic soy agar (TSA) plates to count colonies after incubated at 37°C for 24 h. The experiments were repeated three times.

SMILES: CC[C@H](C)[C@@H]1NC(=O)[C@H](CO)NC(=O)[C@H](CCCCN)NC(=O)[C@@H]2CSSC[C@@H](C(=O)N[C@@H](Cc3ccc(O)cc3)C(=O)O)NC(=O)[C@H](CCCCN)NC(=O)[C@@H]3CSSC[C@H](NC(=O)[C@H](CCCNC(=N)N)NC(=O)[C@H](CC(C)C)NC(=O)[C@H](CC(=O)O)NC(=O)[C@H](CC(=O)O)NC(=O)[C@H](CCC(=O)O)NC(=O)[C@H](CC(N)=O)NC(=O)[C@H](Cc4c[nH]c5ccccc45)NC(=O)[C@@H]4CCCN4C(=O)CNC(=O)[C@H](CC(N)=O)NC(=O)[C@@H](NC(=O)CNC(=O)[C@H](Cc4ccccc4)NC(=O)CN)CSSC[C@H](NC(=O)[C@H](Cc4ccc(O)cc4)NC(=O)CNC(=O)CNC(=O)[C@H](CCCCN)NC(=O)[C@H](Cc4ccc(O)cc4)NC(=O)CNC(=O)[C@H](CCCCN)NC1=O)C(=O)N[C@@H](C)C(=O)N[C@@H](CCCCN)C(=O)NCC(=O)NCC(=O)N[C@@H](Cc1ccccc1)C(=O)N[C@@H](C(C)C)C(=O)N3)C(=O)N[C@@H](Cc1c[nH]cn1)C(=O)N[C@@H](CC(N)=O)C(=O)N[C@@H](Cc1c[nH]cn1)C(=O)N2 [NZ2114]
- Reduction of internalized S. aureus in bovine mammary epithelial cells [1]: efficient to reduce the internalized S. aureus
- MIC against S. aureus E48 [2]: 2 mg/L (≈ 0.453 µM)
- Reduction of S. aureus numbers in mammary glands compared to PBS control [3]: 2.9 log10 units
- Activity against intracellular S. aureus in human THP-1 monocytes [4]: could effectively target intracellular S. aureus
- Activity against Staphylococci compared with plectasin (Staphylococci): stronger activity against Staphylococci than plectasin
- Colonies recovered from bovine milk after 4 h (S. aureus E48 [5]; 4 h, ~10^5 CFU/mL inoculum): almost no colonies recovered
- Reduction of the number of S. aureus in processed bovine milk (S. aureus E48 [5]; within 4 h): ~100%
- Cell viability of mammary epithelial cells [6]: not affected
- Time-kill, effect on S. aureus growth at 0.5×MIC (S. aureus E48 [7]; 0.5×MIC): grew more slowly than those in the control
- Time-kill, effect on S. aureus counts at 1×MIC (S. aureus E48 [7]; 1×MIC): bacterial counts initially decreased, but increased after 8 h post-exposure
- Time-kill, effect on S. aureus counts at 5×MIC (S. aureus E48 [7]; 5×MIC, sampled 0-24 h, repeated three times): most significantly decreased S. aureus at 12 h after inoculation
